Test results from patent US20080085893A1, “MATRIX METALLOPROTEASE INHIBITORS” (priority 2006, published 2008).

Molecular target: T1, human MMP-1 (amino acids 100-262) (Homo sapiens, UniProt P03956)
T1 construct: human MMP-1 (amino acids 100-262); made in house
T1 sequence (P03956 100-262): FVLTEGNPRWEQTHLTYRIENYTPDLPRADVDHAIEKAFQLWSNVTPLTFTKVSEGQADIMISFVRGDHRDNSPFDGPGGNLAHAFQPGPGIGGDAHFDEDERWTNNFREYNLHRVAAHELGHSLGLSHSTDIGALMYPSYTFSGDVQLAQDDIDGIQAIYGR
Test: MMP dose response assay for determining IC50, MMP-1
Type: biochemical
Settings: MMP-1 (nM)
Description: MMP Dose Response Assay for Determining IC50
The following method was used for determining IC50 values of different inhibitor compounds against multiple MMP enzymes. Frozen stocks of recombinantly produced MMPs were prepared in assay buffer (50 mM HEPES pH 7.4, 10 mM CaCl2, 0.05% Brij-35). […] Enzyme concentrations in the assay were determined empirically and set such that proteolytic activity was maintained in a linear range over the time-course of the experiment. […] Each concentration for each test compound was tested in triplicate. MMP enzymes were equilibrated with compounds for 1 hour at room temperature, then a fluorescent-quench substrate (Acetyl-Cys(Eu)-Pro-Leu-Gly-Leu-Lys-(QSY7)-Ala-Arg-amide) was added to a final concentration of 100 nM. […] Data was analyzed by first calculating average background value from wells that contained only substrate, and this value was subtracted from the entire plate. The 100%, or maximum value, was determined by averaging control wells that contained enzyme, substrate and DMSO. For each well, the percent of control was calculated by dividing the well value by the average DMSO value obtained above.

For `Cc1ccc(Oc2ccc(N(C[C@@H](O)C(=O)NO)S(C)(=O)=O)cc2)cc1` [Example 7, N-Hydroxy (2R)-2-hydroxy-3-{N-[4-(4-methylphenoxy)phenyl],N-methanesulfonylamino}propionamide], the IC50 was > 10000 nM.
With `Cc1ccc(Oc2ccc(N(C[C@H](O)C(=O)NO)S(C)(=O)=O)cc2)cc1` [Example 8, N-Hydroxy (2S)-2-hydroxy-3-{N-[4-(4-methylphenoxy)phenyl],N-methanesulfonylamino}propionamide] the IC50 was > 10000 nM.
